## Antibody variant affinities, Ab-14 light chain, assay B

Reference: Li et al. 2023, doi:10.1038/s41467-023-39022-2. File: FLAb, binding data.

The target is the same throughout: PDVDLGDISGINAS, from the HR2 region of SARS-CoV-2 spike.

Parent scFv Ab-14: VH joined to VL by three GGGGS repeats. Changes lie in the light chain CDRs alone.
VH: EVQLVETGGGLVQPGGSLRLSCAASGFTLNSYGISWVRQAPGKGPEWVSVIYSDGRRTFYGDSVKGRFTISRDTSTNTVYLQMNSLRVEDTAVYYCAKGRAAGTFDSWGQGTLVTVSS
VL: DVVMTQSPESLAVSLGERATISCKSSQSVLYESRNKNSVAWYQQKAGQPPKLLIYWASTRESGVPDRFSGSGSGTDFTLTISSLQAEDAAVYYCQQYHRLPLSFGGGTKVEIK

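The starting antibody came from a phage panning campaign against this peptide. This is the validation round: designs drawn from the data on random variants, tested in the same kind of assay. Group labels follow the data file (En: ensemble of fine-tuned language models; GP: Gaussian process model; HC: hill climbing; Gen: genetic algorithm; Gibbs: Gibbs sampling; a sequence that several methods proposed may carry one label only). The assay is AlphaSeq: two haploid yeast populations carry antibody and antigen on their surface. Mating (16 h, 30 °C) was followed by selection of diploids and sequencing of their barcodes. The ratio of observed to expected reads was calibrated, replicate by replicate, on BCL2-family standards whose Kd was known from biolayer interferometry. There are six technical replicates.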

Each variant's VL is given in full. Variants here have more than six changes. Values are apparent Kd, the geometric mean of the replicates that gave a signal; lower means stronger binding. As a blank, each scFv also met three strains without target: over all light chain designs, 4% of these pairings were detected, typically at 430 nM and seldom below 38 nM. Of ten entries with the parent sequence, four were seen in most replicates (averages 2.2 nM to 240 nM), three in one and three in none, so single entries are noisy. The authors' rule: three or more of the six replicates give a measured affinity, fewer mean a poor binder. Values of this round are not directly comparable with the first-round values of the same sequences.

For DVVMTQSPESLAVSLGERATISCNVGQLMDGQTRNRNNVAWYQQKAGQPPKLLIYHQSTREDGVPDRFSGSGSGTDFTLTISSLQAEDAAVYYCQHYHRLPLSFGGGTKVEIK [En_HC], the assay gave 9.0 nM (6 of 6 replicates). For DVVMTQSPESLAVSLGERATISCKIGYNTGQESFHKDNIAWYQQKAGQPPKLLIYDVRDREEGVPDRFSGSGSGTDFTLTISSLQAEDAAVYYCQQYHRLPLSFGGGTKVEIK [En_Gen], the assay gave 3.3 nM (6 of 6 replicates). Variant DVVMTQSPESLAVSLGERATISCWLNWEGQGSDRGMSNIAWYQQKAGQPPKLLIYDSDLRMAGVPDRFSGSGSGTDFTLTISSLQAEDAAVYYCQQYHRLPLSFGGGTKVEIK [En_Gibbs] showed 1.2 nM (6 of 6 replicates). Variant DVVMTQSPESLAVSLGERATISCMLTMFANENAGKSSNIAWYQQKAGQPPKLLIYDTNQLTTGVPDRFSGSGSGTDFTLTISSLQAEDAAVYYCQQYQRLPFMFGGGTKVEIK [En_Gibbs] gave 1.6 nM (6 of 6 replicates). For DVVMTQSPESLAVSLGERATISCKLSGLMASSKFAKDNVAWYQQKAGQPPKLLIYENNTREDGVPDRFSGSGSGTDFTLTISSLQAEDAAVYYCQQYERLPLSFGGGTKVEIK [En_Gen], the assay gave 58 nM (3 of 6 replicates).

With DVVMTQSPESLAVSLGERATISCRLSESAHFESRKKNSVAWYQQKAGQPPKLLIYENSTRESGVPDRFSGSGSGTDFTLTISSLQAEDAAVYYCQQYDHLPLSFGGGTKVEIK [En_HC] the result was 420 nM (3 of 6 replicates). Variant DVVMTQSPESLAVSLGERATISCHLELEEMQMMKDINSIAWYQQKAGQPPKLLIYDTEHKTRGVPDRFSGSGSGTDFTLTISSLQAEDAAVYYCQQYFRLPISFGGGTKVEIK [En_Gibbs] showed 4.3 nM (6 of 6 replicates). Variant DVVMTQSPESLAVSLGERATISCMISQLYNMGTFAINSVAWYQQKAGQPPKLLIYQASVRNEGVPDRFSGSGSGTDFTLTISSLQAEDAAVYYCQQYDRLPLEFGGGTKVEIK [En_Gen] showed 52 nM (3 of 6 replicates). Variant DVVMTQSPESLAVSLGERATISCHIQDDAGGLREQFDSVAWYQQKAGQPPKLLIYSTEERSYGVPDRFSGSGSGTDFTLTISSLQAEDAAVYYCQQYHRLPLSFGGGTKVEIK [En_Gibbs] gave 10 nM (6 of 6 replicates). Variant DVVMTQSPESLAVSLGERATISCKLSISYLFESQEKNSIAWYQQKAGQPPKLLIYENSTREEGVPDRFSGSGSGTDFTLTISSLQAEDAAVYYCQHYHRLPLSFGGGTKVEIK [En_HC] gave 1.3 µM (1 of 6 replicates).

With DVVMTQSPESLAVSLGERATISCMMSQVTGMGARHRNNVAWYQQKAGQPPKLLIYQTSTREPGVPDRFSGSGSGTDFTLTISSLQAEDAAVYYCQQYDRLPLIFGGGTKVEIK [En_Gen] the result was 36 nM (5 of 6 replicates). For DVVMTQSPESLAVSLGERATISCKLVQFMNRGTHHTSNIAWYQQKAGQPPKLLIYDAALREDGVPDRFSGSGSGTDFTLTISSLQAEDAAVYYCQQYYRLPLAFGGGTKVEIK [En_Gen], the assay gave 15 nM (6 of 6 replicates). Variant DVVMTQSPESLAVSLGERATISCKLDMNELGQSQLSSSVAWYQQKAGQPPKLLIYGSANKCQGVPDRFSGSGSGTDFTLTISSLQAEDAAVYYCQQYFRLPLSFGGGTKVEIK [En_Gibbs] showed 1.7 nM (6 of 6 replicates). Variant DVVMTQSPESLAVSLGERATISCKLNSDSVLGWNINNSVAWYQQKAGQPPKLLIYEHSEVVQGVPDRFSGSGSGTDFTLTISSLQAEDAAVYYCQQYVHLPLMFGGGTKVEIK [En_Gibbs] gave 110 nM (6 of 6 replicates). With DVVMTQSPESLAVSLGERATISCKIGMTLNQLMHKKNNVAWYQQKAGQPPKLLIYDLVMRESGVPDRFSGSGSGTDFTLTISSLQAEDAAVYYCQQYHRLPLSFGGGTKVEIK [En_Gen] the result was 4.7 nM (6 of 6 replicates).

For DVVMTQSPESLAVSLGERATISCKLSQSWMQESRNKNSVAWYQQKAGQPPKLLIYQASTREQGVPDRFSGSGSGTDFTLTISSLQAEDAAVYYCQQYARLPLSFGGGTKVEIK [GP_Gibbs], the assay gave 540 pM (6 of 6 replicates). With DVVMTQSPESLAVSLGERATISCTISQMSTLFSQSINNVAWYQQKAGQPPKLLIYEVSTRIEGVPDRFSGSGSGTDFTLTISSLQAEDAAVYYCQQYDRLPLAFGGGTKVEIK [En_Gen] the result was 3.9 nM (6 of 6 replicates). With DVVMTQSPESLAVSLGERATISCKIKLSNSVSLRGTRAIAWYQQKAGQPPKLLIYDGSERAHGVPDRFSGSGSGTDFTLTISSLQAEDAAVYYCQQYHRLPLTFGGGTKVEIK [En_Gibbs] the result was 1.1 nM (6 of 6 replicates). Variant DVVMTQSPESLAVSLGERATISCKLGAWMYVSTEAKRAIAWYQQKAGQPPKLLIYQDEMRVHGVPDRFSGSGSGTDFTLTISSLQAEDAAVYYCQQYDRLPLMFGGGTKVEIK [En_Gibbs] showed 41 nM (5 of 6 replicates). Variant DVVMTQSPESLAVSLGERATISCSLGLSTMLEEYVRNSVAWYQQKAGQPPKLLIYNNSTREQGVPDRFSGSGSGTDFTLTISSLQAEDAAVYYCQQYDRLPLSFGGGTKVEIK [En_Gen] showed 250 nM (2 of 6 replicates).

For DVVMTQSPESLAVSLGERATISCMVNQHDEGFKGVKDAIAWYQQKAGQPPKLLIYNAETREGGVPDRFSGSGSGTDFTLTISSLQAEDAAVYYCQHYGRLPLSFGGGTKVEIK [En_Gibbs], the assay gave 66 nM (6 of 6 replicates).